Protein sequences, listed by entry. Tags and fused reporters are not part of them. Chains listed by the source or under a name are the forms on record and can include a tag or linker. Residues count along the entry.
UniProt Q9H7Z6, 1-458 with tags or gaps limits assumed: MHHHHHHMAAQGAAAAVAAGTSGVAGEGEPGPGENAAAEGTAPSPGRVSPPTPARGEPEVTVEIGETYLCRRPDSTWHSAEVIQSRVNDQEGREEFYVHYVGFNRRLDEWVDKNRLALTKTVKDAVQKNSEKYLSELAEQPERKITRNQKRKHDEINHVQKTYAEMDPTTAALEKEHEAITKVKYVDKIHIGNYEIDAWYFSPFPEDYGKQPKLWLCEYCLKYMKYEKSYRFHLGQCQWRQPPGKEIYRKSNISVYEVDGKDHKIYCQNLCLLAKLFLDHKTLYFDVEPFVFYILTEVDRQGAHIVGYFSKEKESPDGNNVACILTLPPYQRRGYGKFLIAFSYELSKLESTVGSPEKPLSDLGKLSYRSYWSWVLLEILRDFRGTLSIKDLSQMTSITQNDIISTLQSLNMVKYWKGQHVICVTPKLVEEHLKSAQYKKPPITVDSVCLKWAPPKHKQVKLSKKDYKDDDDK
UniProt Q92993, 1-513 with tags or gaps limits assumed: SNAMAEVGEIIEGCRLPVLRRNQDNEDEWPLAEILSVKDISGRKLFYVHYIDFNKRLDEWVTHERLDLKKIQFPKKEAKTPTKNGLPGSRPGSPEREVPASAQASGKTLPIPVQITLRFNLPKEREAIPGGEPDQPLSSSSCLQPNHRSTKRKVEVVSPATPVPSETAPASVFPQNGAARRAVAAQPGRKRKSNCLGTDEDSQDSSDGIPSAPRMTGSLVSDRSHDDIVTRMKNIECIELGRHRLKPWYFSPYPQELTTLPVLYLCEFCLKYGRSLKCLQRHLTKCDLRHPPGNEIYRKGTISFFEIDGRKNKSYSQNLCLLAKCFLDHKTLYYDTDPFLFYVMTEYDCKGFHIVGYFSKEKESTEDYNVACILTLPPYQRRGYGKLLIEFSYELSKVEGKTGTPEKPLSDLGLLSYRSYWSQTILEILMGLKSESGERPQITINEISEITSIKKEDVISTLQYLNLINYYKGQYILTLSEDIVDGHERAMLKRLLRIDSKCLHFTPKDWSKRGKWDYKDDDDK
UniProt O95251, 1-611 with tags or gaps limits assumed: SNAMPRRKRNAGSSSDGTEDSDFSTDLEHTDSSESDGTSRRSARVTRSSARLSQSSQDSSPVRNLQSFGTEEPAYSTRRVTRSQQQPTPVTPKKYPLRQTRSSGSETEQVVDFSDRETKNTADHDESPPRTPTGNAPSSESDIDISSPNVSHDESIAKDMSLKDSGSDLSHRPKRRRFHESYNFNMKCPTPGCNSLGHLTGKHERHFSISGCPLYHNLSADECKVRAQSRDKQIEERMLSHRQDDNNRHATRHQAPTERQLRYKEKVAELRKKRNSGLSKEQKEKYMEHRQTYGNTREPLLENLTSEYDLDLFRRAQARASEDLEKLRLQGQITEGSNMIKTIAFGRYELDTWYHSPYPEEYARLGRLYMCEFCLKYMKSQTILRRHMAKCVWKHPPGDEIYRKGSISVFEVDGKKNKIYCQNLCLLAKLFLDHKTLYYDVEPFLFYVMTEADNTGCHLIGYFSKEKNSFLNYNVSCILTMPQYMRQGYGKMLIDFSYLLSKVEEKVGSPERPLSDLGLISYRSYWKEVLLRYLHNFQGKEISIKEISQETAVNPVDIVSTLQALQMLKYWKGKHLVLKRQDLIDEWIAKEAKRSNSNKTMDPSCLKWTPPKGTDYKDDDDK
UniProt Q92794, 501-784 with tags or gaps limits assumed: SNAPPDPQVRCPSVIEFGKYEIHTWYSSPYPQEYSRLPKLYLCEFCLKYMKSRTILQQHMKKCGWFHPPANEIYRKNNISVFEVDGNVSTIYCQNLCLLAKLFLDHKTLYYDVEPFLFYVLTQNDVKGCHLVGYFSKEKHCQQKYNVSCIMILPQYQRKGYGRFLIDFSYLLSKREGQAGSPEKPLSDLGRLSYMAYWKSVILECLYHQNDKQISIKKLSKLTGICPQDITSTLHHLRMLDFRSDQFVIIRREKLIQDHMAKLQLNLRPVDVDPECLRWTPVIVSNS

According to patent US11685732B2, “MYST family histone acetyltransferase inhibitors” (Epizyme, Inc., priority 2017, dated 2023):

What was measured:
KAT-8 = KAT-8 (Homo sapiens (Human), UniProt Q9H7Z6); assay: KAT-8 biochemical inhibition assay (SAMDI mass spectrometry); conditions: read-out: KAT-8 IC50
Method: (§1) KAT-8. Enzyme assay buffer was 50 mM Tris pH 8.0, 0.002% Tween20, 0.005% bovine skin gelatin, and 1 mM dithiothreitol (DTT). For determination of IC50 values, compounds were serially diluted with 2% (v/v) DMSO in the final reaction, pre-incubating each dilution of each compound with 40 μL of assay buffer containing KAT-8 enzyme (12.5 nM final concentration). 10 μL of assay buffer containing 1 μM peptide substrate and 5 μM acetyl coenzyme A (final concentrations) was added. Reactions (50 μL total) were then carried out at 25° C. for 90 minutes. Reactions were terminated by the addition of 0.5% formic acid (final concentration), and a sample of each reaction was analyzed by SAMDI Tech, Inc. (Chicago, Ill.) using self-assembled monolayer desorption/ionization time-of-flight mass spectrometry (Mrksich, M. (2008) Mass spectrometry of self-assembled monolayers: a new tool for molecular surface science. ACS Nano 2, 7-18).

KAT-5 = KAT-5 (Homo sapiens (Human), UniProt Q92993); assay: KAT-5 biochemical inhibition assay (SAMDI mass spectrometry); conditions: read-out: KAT-5 IC50
Method: as §1, with “KAT-5. Enzyme” for “KAT-8. Enzyme”, “containing KAT-5” for “containing KAT-8”, “enzyme (9” for “enzyme (12.5”, “and 0.5” for “and 5”

KAT-7 = KAT-7 (Homo sapiens (Human), UniProt O95251); assay: KAT-7 biochemical inhibition assay (SAMDI mass spectrometry); conditions: read-out: KAT-7 IC50
Method: as §1, with “KAT-7. Enzyme” for “KAT-8. Enzyme”, “containing KAT-7” for “containing KAT-8”, “enzyme (6” for “enzyme (12.5”, “and 2” for “and 5”, “for 120” for “for 90”

KAT-6A = KAT-6A (Homo sapiens (Human), UniProt Q92794); assay: KAT-6A biochemical inhibition assay (SAMDI mass spectrometry); conditions: read-out: KAT-6A IC50
Method: as §1, with “KAT-6A. Enzyme” for “KAT-8. Enzyme”, “containing KAT-6A” for “containing KAT-8”, “and 1” for “and 5”

| IC50 (KAT-8) | IC50 (KAT-5) | IC50 (KAT-7) | IC50 (KAT-6A) | SMILES |
| --- | --- | --- | --- | --- |
| 10 to 50 µM |  |  |  | Cn1cnc(-c2cc(Cl)c(F)c(C(=O)NNS(=O)(=O)c3cn[nH]c3)c2)c1 |
| 10 to 50 µM | < 10 µM | < 10 µM | < 10 µM | O=C(NNS(=O)(=O)CC1CCCCC1)c1cc(-c2ccn[nH]2)cc(Cl)c1F |
| 10 to 50 µM |  |  |  | Cc1[nH]ncc1-c1cc(Cl)c(F)c(C(=O)NNS(=O)(=O)CC2CCOCC2)c1 |
| 50 to 100 µM |  |  |  | O=C(NNS(=O)(=O)CC1CCCCC1)c1cc(-c2cn[nH]c2)cc(Cl)c1F |
| 10 to 50 µM |  |  |  | O=C(NNS(=O)(=O)CC1CCCCC1)c1cc(-c2cnc[nH]2)cc(Cl)c1F |
| 10 to 50 µM |  |  |  | Cn1cnc(-c2cc(Cl)c(F)c(C(=O)NNS(=O)(=O)c3c[nH]nn3)c2)c1 |
